In ChEMBL document CHEMBL1132513, “Manipulation of the C(22)-C(27) region of rapamycin: stability issues and biological implications” (Bioorg Med Chem Lett, 1999):

Assay: The activity in the LAF assay is best expressed as a ratio of the rapamycin IC50 (1-9 nM) /analogue IC50 (R/A)
Type: functional

With CO[C@H]1C[C@@H]2CC[C@@H](C)[C@@](O)(O2)C(=O)C(=O)N2CCCC[C@H]2C(=O)O[C@H]([C@H](C)C[C@@H]2CC[C@@H](O)[C@H](OC)C2)CC(=O)[C@H](C)/C=C(\C)[C@@H](O)[C@@H](OC)C(=O)[C@H](C)C[C@H](C)/C=C/C=C/C=C/1C [SIROLIMUS] the Ratio was 3.
